How the values were obtained:
D. melanogaster nAChRs = experiment: Comparison of agonist activity between nAChRs expressed in X. laevis oocytes (one-way ANOVA, Kruskal-Wallis); assay type: cell-based; settings: Dα3/Dβ1 vs Dα1/Dβ1 nAChR
Experimental: We minimised the use of X. laevis according to the UK Animals (Scientific Procedures) Act, 1986. […] Oocytes were defolliculated after collagenase treatment in Ca^2+-free standard oocyte saline (Ca^2+-free SOS). cRNAs of the nAChR subunits and co-factors mixed at a concentration of 0.1 mg/mL was injected into oocytes at a volume of 50 nL. Then the oocytes were incubated in the incubation medium (SOS supplemented with sodium pyruvate (Nacalai Tesque, #13058–12), penicillin-streptomycin (MilliporeSigma, #P4333), gentamycin (Nacalai Tesque, #16672–04), and 4% horse serum (Thermo Fisher Scientific, #26050–070) for 3−4 days prior to electrophysiology.
Each defolliculated X. laevis oocyte was secured in a Perspex recording chamber and perfused with the standard oocyte saline (SOS) containing 0.5 μM atropine (SOSA) at a flow rate of 7−10 mL/min [48]. Two glass electrodes filled with 2 M KCl were impaled into each oocyte and the membrane potential was clamped at -100 mV. […] The peak amplitude of the response was measured and analysed by pCLAMP (Molecular Devices, USA).
Y=Imax/1+10^(logEC50‐X)nH
Where Y is the normalised response, X is log[ligand (M)], EC50 is the half maximal concentration (M), Imax is the maximum normalised response and nH is the Hill coefficient.
Prism software was employed for the statistical analyses. […]

D. melanogaster = settings: in vivo; cited from earlier work

Compound: O=[N+]([O-])NC1=NCCN1Cc1ccc(Cl)nc1 [Imidacloprid, imidacloprid]
- EC50 value for the Dα3/Dβ1 nAChR lower than that for the Dα1Dβ1 nAChR (D. melanogaster nAChRs): 14.4 fold
- resistance level, effect of double knockouts (D. melanogaster): reduced

Source: paper PMC9934367, “Functional impact of subunit composition and compensation on Drosophila melanogaster nicotinic receptors–targets of neonicotinoids” (PLOS Genetics, 2023)
